Data from patent publication CN111704670A.

Biological target: RANKL-兔Fc (rabbit)
Experiment: cell-based or functional assay

生物学活性量效曲线 IC50 (inhibition of RANKL-rabbit Fc driven RAW264.7 differentiation, TRAP/pNPP OD); Denosumab lot 1041075: 1.03 ng/ml
Substance: 商购Denosumab(lot:1041075) (antibody)
